# Screening data as filed in PubChem BioAssay.
# Sampled rows, rich in hits. Any-hit rate of the full collection: about 0.34%.
# Rango release inh = inhibitors of RanGTP-induced Rango-importin beta complex dissociation; O95149+P62826; Biochemical FRET Rango-importin beta, RanGTP-induced dissociation; Potency, µM (top dose mostly 46.1 µM); hit rate 0.071% among 340,000; calls by dose curve; note: nearly all actives have a fitted effect of over 45% in size
#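 Compounds preincubate 5 min with complex of recombinant Rango and importin beta in PBS with 1 mM DTT. Ran (0.6 uM) loaded with 2 mM GTP plus 0.2 uM RCC1 starts dissociation; FRET is recorded 45 min later.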
# Vif-APOBEC3G blk = Vif-A3G binding inhibition; Q9HC16; HeLa A3G-eYFP + Vif (tagged APOBEC3G with the HIV-1 protein that degrades it), YFP fluorescence, overnight; Potency, µM (doses to about 46.1 µM), usual class: inhibitors; hit rate 0.076% among 410,000; note: nearly all actives have a fitted effect of over 60% in size
#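 Read-out is eYFP fluorescence (Ex 488/Em 500-530) from Vif-expressing HeLa A3G-eYFP cells; more signal means A3G escaped Vif-mediated degradation. Cells plated overnight, compound pinned in, incubated overnight at 37 deg C.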
# Eya2 inh = blocks the phosphatase activity of human Eya2; O00167; recombinant Eya2, OMFP fluorescence dephosphorylation (OMFP is methylfluorescein phosphate); Potency, µM (doses to about 76.9 µM), usual class: inhibitors; hit rate 0.006% among 330,000
#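 Eya2 protein (added as 0.2 uM solution) was preincubated with compound for 10 min at ambient temperature in 50 mM HEPES pH 7.5, 50 mM NaCl, 5 uM MgCl2, 0.05% BSA, 1 mM DTT. OMFP (added at 50 uM) then reacted 10 min; fluorescence read at 485/525 nm.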
# Rango complex inh = prevents formation of the Rango-importin beta complex | Q14974 | Rango CFP/YFP FRET sensor + importin beta, 45 min | Potency, µM (doses to about 92.2 µM) | hit rate 0.031% among 340,000 | AID 540263; calls by dose curve; note: nearly all actives have a fitted effect of over 15% in size
#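 FRET biosensor (snurportin 1 IBB flanked by EYFP and cerulean), 50 nM, with compound 5 min, then 0.125 microM importin beta in PBS, 1 mM DTT, 0.02% Tween-20, 0.1% BSA. CFP/YFP ratio read after 45 min at room temperature; pre-read flags interference.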
# ASM inhibitor = inhibitors of human secretory acid sphingomyelinase | P17405 | placental ASM, HMU-PC fluorogenic substrate, 60 min | Potency, µM (doses to about 57.5 µM), actives largely listed as inhibitors | hit rate 0.006% among 340,000
#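 Fluorogenic HMU-PC substrate (9 uM final) is turned over by placental ASM in 60 min at 37 C after a 10 min compound preincubation. Reaction ended by alkaline stop (pH 10), with fluorescence read at 386/447 nm.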
# Vif-APOBEC3F blk = Vif-A3F binding inhibition. HeLa A3F-eYFP + Vif (tagged APOBEC3F with the HIV-1 protein that degrades it), YFP fluorescence increase. Potency, µM (highest dose often 46.1 µM). hit rate 0.2% among 390,000; note: nearly all actives have a fitted effect of over 65% in size
#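 HeLa cells stably expressing Vif plus C-terminally eYFP-tagged A3F were seeded, incubated overnight at 37 deg C, dosed with compound, incubated overnight again at 37 deg C. Yellow fluorescence (Ex 488/Em 500-530) reported blocked Vif-mediated A3F-eYFP degradation.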
# Hits are given with their value; – = inactive; ? = inconclusive; · = no result. Unless noted, calls come from the whole dose curve; as a rule, active = well fitted curve in the direction sought with a large enough effect; inconclusive = small, poorly fitted or top-dose-only effect, or another doubt; inactive = no such curve, though single readings can be large; an effect the other way counts as inactive or inconclusive.
SMILES,Rango release inh,Vif-APOBEC3G blk,Eya2 inh,Rango complex inh,ASM inhibitor,Vif-APOBEC3F blk
O=C(Nc1nc(-c2ccccn2)cs1)C1CC1,–,–,–,–,–,?
Cc1cc(/C=C2\SC(=S)N(Cc3ccco3)C2=O)c(C)n1-c1ccccc1,?,?,–,?,–,20µM
COc1cc(/C=N/NS(=O)(=O)c2ccc(C)c([N+](=O)[O-])c2)cc([N+](=O)[O-])c1O,–,–,–,–,–,–
COc1ccc(-n2c(O)c(/C=N/NS(=O)(=O)c3ccc(C)c([N+](=O)[O-])c3)c3ccccc3c2=O)cc1OC,?,3.55µM,–,?,–,12.6µM
COc1ccc(-n2cc(-c3ccccc3)nc2SCC(=O)Nc2ccccc2)cc1Cl,·,–,·,·,·,?
C=C1[C@@H](O)CN(Cc2ccc(OC)cc2)S1(=O)=O,·,–,·,·,·,·
COc1cccc(C2CC(c3ccccc3)=NN2S(=O)(=O)c2ccc(C)cc2)c1OC (stereo unspecified),–,?,–,?,–,25.1µM
COc1ccccc1C1CC(c2ccccc2)=NN1S(=O)(=O)c1ccccc1 (stereo unspecified),–,–,–,–,–,–
COc1ccc(F)c(Cn2cnc3c(cnn3C(C)(C)C)c2=O)c1Cl,·,–,·,·,·,·
O=[N+]([O-])c1ccc(Oc2cccc3cccnc23)c([N+](=O)[O-])c1,–,10µM,–,?,–,?
Cc1cc(NC(=O)N2CC=C(c3c[nH]c4ccccc34)CC2)ccc1Br,·,?,·,·,·,22.4µM
Cc1ccc(C)c(NC(=O)CS(=O)(=O)c2c[nH]c3ccccc23)c1,–,–,–,–,–,–
Cc1ccc(C)c(NC(=O)N2CC=C(c3c[nH]c4ccccc34)CC2)c1,·,?,·,·,·,25.1µM
CC(C)(C)CC(C)(C)N=C1Nc2ccc([N+](=O)[O-])cc2N[C@]12C[C@H]1CCCC(=O)N3CC[C@@H](C2)[C@@H]13,·,–,·,·,·,·
Cc1cc(C)c2c3c(c(-c4ccccc4)n2n1)c(=O)n(C)c(=O)n3C,–,–,·,–,–,–
Cc1cc(-c2ccccc2)c2c3c(c(-c4ccccc4)n2n1)c(=O)n(C)c(=O)n3C,?,?,–,?,–,25.1µM
O=c1cc(-c2ccccc2)[nH]n1-c1ccccc1,–,–,·,–,–,–
CC(C)(C)c1cc(=O)n(-c2ccccc2)[nH]1,–,–,–,46.1µM,–,–
Cc1cc(NC(=O)CSc2nc3c(C)ccc(C)c3cc2C#N)no1,–,–,–,–,–,?
Cc1cc(NC(=O)CSc2nc3c(C)cccc3cc2C#N)no1,–,?,–,–,–,11.2µM
COc1ccc(CN2CC[C@H]3C=CC[C@@H](C(=O)N4CCN(c5ccccc5)CC4)[C@H]3C2=O)cc1OC,·,–,·,·,·,·
CCOC(=O)/C(C#N)=N\Nc1cc(Cl)ccc1OC,–,–,–,?,–,10µM
OC(C[n+]1c(Cl)ccc2ccccc21)c1ccccc1 (stereo unspecified),·,–,·,·,·,·
CCOC(=O)N1CCN(/[N+]([O-])=N/OCOC)CC1,·,–,·,·,·,·
CCC(C)Sc1ccc(-c2nc3cnccn3c2NC2CCCCC2)cc1 (stereo unspecified),?,?,–,?,–,?
SMILES,Rango release inh,Vif-APOBEC3G blk,Eya2 inh,Rango complex inh,ASM inhibitor,Vif-APOBEC3F blk
CCC(C)Sc1ccc(-c2nc3cc(C)ccn3c2NC2CCCCC2)cc1 (stereo unspecified),–,?,–,?,–,11.2µM
COc1ccc(N/C=C/C(=O)c2ccccc2)cc1,–,–,–,?,–,–
COc1ccc(N/C=C/C(=O)c2sc(-c3ccccc3)nc2C)cc1,?,11.2µM,–,?,–,–
CCCOc1ccc2cc(C(=O)NCc3ccccc3)c(=O)oc2c1,?,–,–,?,–,31.6µM
Nc1ncnc2c1ncn2[C@@H]1O[C@H](CNCc2ccc(OCc3ccccc3)cc2)[C@@H](O)[C@H]1O,–,22.4µM,–,–,–,–
Nc1ncnc2c1ncn2[C@@H]1O[C@H](CNCc2ccc(OCC(=O)Nc3ccccn3)cc2)[C@@H](O)[C@H]1O,–,–,–,–,–,–
COc1ccc(NC(=S)Nc2ncccc2C)cc1OC,–,–,–,–,–,–
COc1ccc(NC(=S)Nc2ncccc2C)c(OC)c1,–,11.2µM,–,–,–,–
NNC(=O)c1ccc(CN2C(=O)c3cccc4cccc2c34)cc1,18.4µM,–,–,?,–,?
COc1ccccc1/C=N/NC(=O)c1ccc(CN2C(=O)c3cccc4cccc2c34)cc1,–,–,–,?,–,–
CCN(CC(=O)NCc1ccc(F)cc1)C(=O)/C=C/c1ccc(OC)c(S(=O)(=O)NC(C)C)c1,–,2.82µM,–,–,–,–
CCN(CC(=O)NCc1ccc(F)cc1)C(=O)/C=C/c1ccc(OC)cc1,–,–,–,–,–,–
Cc1ccc(S(=O)c2ccc([N+](=O)[O-])c3nonc23)cc1 (stereo unspecified),·,?,·,·,·,22.4µM
CCN(CC)/[N+]([O-])=N/Oc1ccc([N+](=O)[O-])cc1[N+](=O)[O-],·,–,·,·,·,·
CCCCCCc1cc2cc(-c3nnc(-c4ccccc4OC)o3)c(=O)oc2cc1O,?,12.6µM,–,?,–,?
CCCCCCc1cc2cc(-c3nnc(-c4ccccc4O)o3)c(=O)oc2cc1O,?,3.16µM,–,?,–,?
CCCCCCc1cc2cc(-c3nnc(-c4cc(OC)c(OC)c(OC)c4)o3)c(=O)oc2cc1O,?,?,–,?,–,?
Nc1cc(N)cc(N)c1,·,–,·,·,·,·
O=C(C[n+]1cccc2cccc(O)c21)c1ccc(Br)cc1,·,–,·,·,·,·
CCN(CC)c1ccccc1/C=C/[n+]1ccc(CCCCI)c2ccccc21,·,–,·,·,·,·
CCOC(=O)c1c(NC(=O)CSc2nc3ccc(OC)cc3[nH]2)sc2c1CC(C)(C)NC2(C)C,–,?,–,?,–,25.1µM
CCOC(=O)c1c(NC(=O)CSc2ncccn2)sc2c1CC(C)(C)NC2(C)C,–,–,–,?,–,–
Cc1cc(-c2nnc(CCC(=O)N(C)CCc3ccccc3)o2)no1,–,–,–,–,–,–
Cc1cccc(Cc2nnc(CCC(=O)N(C)CCc3ccccc3)o2)c1,–,–,–,20.6µM,–,–
Cc1c(Cc2ccccc2)sc(/N=C/c2c(O)ccc3ccccc23)c1C(N)=O,?,–,–,?,–,8.91µM
Cc1cc(NC(=O)c2ccco2)cc(-c2nc3cc(Cl)ccc3o2)c1O,·,?,·,·,·,11.2µM
Cc1cc2ccccc2c[n+]1C1CCCCC1,·,–,·,·,·,·
Cc1ccc(-c2nc(-c3cc4cccc(OCc5cccc(F)c5)c4oc3=O)no2)cc1,·,–,·,·,·,8.91µM
Nc1c(C(=O)c2ccccc2)sc2nsc(SCCN3CCOCC3)c12,?,?,?,?,–,3.55µM
